Data from BindingDB's records for doi:10.1016/j.bmcl.2009.07.032 (Amgen, 2009).

Assay: Antagonist activity against human CXCR3 expressed in human PBMC assessed as inhibition of cell migration in response to ITAC in plasma

CCOc1ccc(-n2c([C@@H](C)N(Cc3cccnc3)C(=O)Cc3ccc(OC(F)(F)F)cc3)nc3ncccc3c2=O)cc1 [(-)-(R)-N-(1-(3-(4-ethoxyphenyl)-4-oxo-3,4-dihydropyrido[2,3-d]pyrimidin-2-yl)ethyl)-N-(pyridin-3-ylmethyl)-2-(4-(trifluoromethoxy)phenyl)acetamide]
IC50: 240 nM
